# Earlier results as cited in patent publication US6544976B1, “Neurotrophic 2-azetidinecarboxylic acid derivatives, and related compositions and methods” (Ortho-McNeil Pharmaceutical, Inc., priority 1999, dated 2003).
# System: ALS patients
# Conditions: cited from earlier work
smiles,measurement,value
Nc1nc2ccc(OC(F)(F)F)cc2s1 [Riluzole],rate of survival of ALS patients,increase the rate of survival
